The values that follow are results of earlier work, collected in patent US20220235325A1, “STIMULATION OF DENDRITIC CELL ACTIVITY BY HOMOTAURINE AND ANALOGUES THEREOF” (Therapeutic Solutions International, Inc., priority 2021, published 2022).

The data set concerns metastatic colorectal cancer. Particulars: added to a protocol of bevacizumab and chemotherapy; cited from earlier work.

Regarding “cetuximab: anti-epidermal growth factor receptor (EGFR) monoclonal antibody (mAb)”, the Survival result is reported as “decreased survival”.
